For the experiment, the target named is AnKir1 (Anopheles gambiae, UniProt A0A075M2J8). Nature of the experiment: thallium (Tl+) flux assay.

Chains of the proteins cited; added tags and fusions are not shown. Residues count along the entry.
UniProt A0A075M2J8, 1-555: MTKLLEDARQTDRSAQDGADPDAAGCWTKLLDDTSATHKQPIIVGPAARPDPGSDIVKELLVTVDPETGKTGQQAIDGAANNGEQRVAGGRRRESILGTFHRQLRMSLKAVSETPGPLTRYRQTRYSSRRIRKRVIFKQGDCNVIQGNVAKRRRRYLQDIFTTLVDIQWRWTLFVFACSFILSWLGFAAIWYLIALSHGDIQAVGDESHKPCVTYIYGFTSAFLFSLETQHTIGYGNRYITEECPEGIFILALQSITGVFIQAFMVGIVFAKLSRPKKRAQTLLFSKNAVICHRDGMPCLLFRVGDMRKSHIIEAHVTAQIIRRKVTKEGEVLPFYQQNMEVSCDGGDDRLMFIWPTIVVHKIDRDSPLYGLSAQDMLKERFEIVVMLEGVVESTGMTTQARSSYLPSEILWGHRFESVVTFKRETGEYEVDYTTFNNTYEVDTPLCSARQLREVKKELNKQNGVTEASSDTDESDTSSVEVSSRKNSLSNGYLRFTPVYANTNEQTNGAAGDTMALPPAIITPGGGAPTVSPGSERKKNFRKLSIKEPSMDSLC

The source of these data is US11632953B2, “Method for controlling hematophagous or sap-feeding arthropods” (Board of Supervisors of Louisiana State University and …, priority 2016, dated 2023).

`O=C(Cn1nc(C(F)(F)F)c2c1CCCC2)N1CCc2ccccc2C1`: the “loss of potency vs VU041” value was determined as 7 fold.
